Laboratory results as given in patent US20040072801A1, “Sterols bearing pendant allosteric effectors of hemoglobin, and uses thereof” (priority 2002, published 2004).
Read-outs that look alike come from different tables or passages of the source.

Columns and labels:
mice RBC = type: in vivo; settings: ip at 30, 45 and 60 mM
Procedure: KF16 was also administered at 3 concentrations (30, 45 and 60 mM) by intraperitonal (ip) injection. […] Three hours after injection, samples of blood were taken for P50 measurements. […] We have observed the shift of the P50 values in the blood from the injected animals over 3 days.
The P50 shift of RBC is similar to iv injections at concentrations of 30 and 45 mM. After ip injections with KF16.4 there is a shift of 12 to 18% following the increasing concentration of the effector (30-60 mM).

Inositol hexaphosphate-cholesteroloxycarbonyl, hepta N,N-dimethyl-cyclohexylammonium salt [KF16]
tolerability, intraperitonal injection (mice RBC): tolerated well in all concentrations
tolerability, intraperitonal injection (mice RBC; listed as KF 16): non toxic
tolerability, direct injection into the vein (C57B1/6 mice; iv 200 μL at 30, 45 and 60 mM, observed 2 hours): non-toxic
tolerability, direct injection into the vein (C57B1/6 mice; iv at 30 and 45 mM): non-toxic
solubility in water (Solubility in water): soluble in water
